Experimental data published in paper PMC12434715 (Biochemical pharmacology, 2018).

Key:
TK6/SULT vector cells = assay: MTT assay of cell growth in TK6/SULT vector cells; settings: tested concentration (DHEA 5 μM, pentachlorophenol 10 μM), 48 h
TK6/SULT2A1 cells = assay: MTT assay of cell growth in TK6/SULT2A1 cells; settings: tested concentration (DHEA 5 μM, pentachlorophenol 10 μM), 48 h

C[C@]12CC[C@H](O)CC1=CC[C@@H]1[C@@H]2CC[C@]2(C)C(=O)CC[C@@H]12 [DHEA, dehydroepiandrosterone]
Cytotoxicity of the SULT substrate alone (TK6/SULT vector cells): not cytotoxic | Cytotoxicity of the SULT substrate alone (TK6/SULT2A1 cells): not cytotoxic
